# Yeast mating assay 1: variants of the scFv Ab-14

Source: Engelhart et al. 2022 (doi:10.1038/s41597-022-01779-4), MIT Lincoln Laboratory and A-Alpha Bio; data file from the FLAb repository.

Binding partner: SARS-CoV-2 spike HR2 peptide, sequence PDVDLGDISGINAS.

Each scFv is VH, a (GGGGS)3 linker, VL, as in the parent Ab-14, and differs from it in the CDRs of the heavy chain only.
VH: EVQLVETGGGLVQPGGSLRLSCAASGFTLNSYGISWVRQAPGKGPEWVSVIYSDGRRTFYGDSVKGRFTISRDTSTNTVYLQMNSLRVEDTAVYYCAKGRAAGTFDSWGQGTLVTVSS
VL: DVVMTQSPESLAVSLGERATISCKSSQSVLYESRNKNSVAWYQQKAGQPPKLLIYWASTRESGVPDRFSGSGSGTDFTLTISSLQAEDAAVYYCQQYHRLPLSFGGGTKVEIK

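Phage display of a naive human antibody library on the peptide gave the parent. Library AAYL49 holds single substitutions and randomly drawn double and triple substitutions in the CDRs. The scFvs were displayed on barcoded MATa yeast, the peptide on MATalpha yeast. Binding brings cells together so that they mate, and sequencing counts the barcode pairs among the diploids. Scores were corrected for input abundance and mapped to Kd with protein pairs of known affinity run in the same pool. There are three technical replicates.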

Positions count from residue 1 of the parent VH; S31D puts D in place of S. The read-out is the apparent dissociation constant on a log10 scale (nM): the lower, the stronger. The mean shown is taken over the replicates in which the pair was detected. A pair that was not seen in any replicate is written "no signal"; this usually means weak binding, but a binder can also be missed. Entries are sorted by rising average, undetected variants last.

mean, log10 nM	detected	changes
-0.17	3 of 3	S31D G103L D106I
0.77	3 of 3	T28E T58C T104Q
1.21	3 of 3	R100A A101P
1.22	3 of 3	G26F T28G
1.40	3 of 3	T28K R100P G103D
1.90	3 of 3	T28Q N30W
2.29	1 of 3	G26V D62A D106G
2.65	3 of 3	Y32Q Y60M A102I
2.79	1 of 3	G26L Y32C G55L
2.82	3 of 3	T28G I34V R57Q
2.90	2 of 3	V50G G61R A101G
3.01	1 of 3	S31C Y52G A102S
3.22	1 of 3	G55M D62N A101R
3.28	1 of 3	Y32T I34M
3.30	1 of 3	I34P S53D F105K
3.34	2 of 3	I51C V64M G99D
3.47	1 of 3	F27H V50F A102I
3.52	1 of 3	V50I D62S T104I
3.62	2 of 3	Y32K Y52G S107Y
3.69	1 of 3	F27T S31G G103K
3.69	1 of 3	I34C A101W S107E
3.74	1 of 3	G26E K65M F105N
3.85	2 of 3	T28F S35W I51K
3.86	2 of 3	R56D T104V D106G
3.87	1 of 3	T28P V50Y T104I
3.97	1 of 3	D54E K65F G99I
4.03	1 of 3	N30V I34G R100I
4.03	2 of 3	Y32C R57F G61N
4.13	2 of 3	S31Y G55R S107H
4.40	2 of 3	Y32C Y52V F105E
4.44	3 of 3	L29H Y52M A101Q
4.62	1 of 3	S53N R57V F105E
4.66	3 of 3	I51H T58L D62H
4.78	2 of 3	G55Q Y60F T104R
4.79	1 of 3	F27Y G33Q S35Y
4.85	2 of 3	S31L D54R A102Q
4.91	1 of 3	T28L I34A I51N
5.00	1 of 3	G55N F59Y V64H
5.27	2 of 3	Y52T R57V G103R
5.46	1 of 3	I34E S53M R56L
5.54	1 of 3	T58P G99N F105G
5.70	1 of 3	F27G T58R
5.72	2 of 3	N30L S35Q S53Y
no signal	0 of 3	S31Y Y60A G99D
no signal	0 of 3	S53H D62Y S107D
no signal	0 of 3	R57L F59N A101Q
no signal	0 of 3	G26C T28Y A101L
no signal	0 of 3	F27W R56K R57L
no signal	0 of 3	T28R I34E G99R
no signal	0 of 3	L29I I34C T58Q
no signal	0 of 3	I51F Y52D S63V
no signal	0 of 3	N30S V50Y I51L
no signal	0 of 3	I34D S53R T104E
no signal	0 of 3	I51F R100F T104R
no signal	0 of 3	D54S F59V R100M
no signal	0 of 3	S53T R56E F105I
no signal	0 of 3	I34Y A101P T104I
no signal	0 of 3	N30D Y52L G61E
no signal	0 of 3	Y52I V64A S107G
no signal	0 of 3	D54W F105R D106E
no signal	0 of 3	G33Q T104I D106G
no signal	0 of 3	F27Y Y52A
no signal	0 of 3	Y32W V50L F105W
no signal	0 of 3	V50E D62R G99E
no signal	0 of 3	S35P V50R K65N
no signal	0 of 3	R56L G99R R100M
no signal	0 of 3	N30C D62P V64W
no signal	0 of 3	G26F N30H Y32R
no signal	0 of 3	I34N R57I D62S
no signal	0 of 3	F27Y I34H S53R
no signal	0 of 3	D62L V64W T104M
no signal	0 of 3	N30P G55W G103S
no signal	0 of 3	L29E A102D T104D
no signal	0 of 3	L29N Y32N I51C
no signal	0 of 3	V50P S63R F105Y
no signal	0 of 3	V50T F59P F105K
no signal	0 of 3	D54W G55H S107K
no signal	0 of 3	N30I T58F D106S
no signal	0 of 3	T28D Y52W G99E

From the list, the first 7 with no signal in any replicate:

changes	mean, log10 nM	detected
S31Y Y60A G99D	no signal	0 of 3
S53H D62Y S107D	no signal	0 of 3
R57L F59N A101Q	no signal	0 of 3
G26C T28Y A101L	no signal	0 of 3
F27W R56K R57L	no signal	0 of 3
T28R I34E G99R	no signal	0 of 3
L29I I34C T58Q	no signal	0 of 3

Three control strains display no target. For library AAYL49, 15% of the pairings with them gave a signal, with a median of 4.06 and one signal in twenty below 2.83, so weak values seen in few replicates may be background. Parent in this assay: reference entry 0.65, copy in this library 4.11 (one replicate of three).